{
  "sequences": {"note": "Chains of the proteins cited; added tags and fusions are not shown.", "UniProt P35365, whole entry": "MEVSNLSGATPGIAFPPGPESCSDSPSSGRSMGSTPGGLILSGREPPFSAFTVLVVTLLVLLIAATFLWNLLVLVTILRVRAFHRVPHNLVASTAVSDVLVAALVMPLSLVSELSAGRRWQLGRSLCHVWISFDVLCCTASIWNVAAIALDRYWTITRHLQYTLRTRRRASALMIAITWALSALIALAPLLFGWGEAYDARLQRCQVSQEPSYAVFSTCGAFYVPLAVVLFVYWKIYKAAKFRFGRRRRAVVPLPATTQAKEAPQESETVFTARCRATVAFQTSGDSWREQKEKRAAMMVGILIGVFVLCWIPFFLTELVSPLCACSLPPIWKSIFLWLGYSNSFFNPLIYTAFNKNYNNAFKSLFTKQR"},
  "source": "BindingDB's records for doi:10.1073/pnas.90.8.3452",
  "about": "(The Scripps Research Institute, 1993)",
  "molecular_target": "5-hydroxytryptamine receptor 5B (Rattus norvegicus, UniProt P35365)",
  "data": [
    {"compound": "COC(=O)[C@@H]1[C@H]2C[C@H]3c4[nH]c5ccccc5c4CCN3C[C@@H]2CC[C@@H]1O", "note": "[yohimbic acid methyl ester]", "values": [
      {"measurement": "Ki", "result": 1, "unit": "µM"}
    ]}
  ]
}
